Read-outs that look alike come from different tables or passages of the source.
System: CDC1551(ΔdosR) mutant
Assay type: cell-based
Settings: for log2 Fold change: DosR mutant
[1] = gene MT2504 Rv2429 ahpD, HC101A vs DMSO
[2] = gene MT3118 Rv3033, HC101A vs DMSO

## C[C@@H]1CC[C@H]2[C@@H](C)C(=O)O[C@@H]3O[C@]4(C)CC[C@@H]1[C@]32OO4 [HC101A, artemisinin, reference compound]
Gene MT1854 Rv1804c, HC101A vs DMSO
  DosR DMSO/DosR HC101A Fold change: 0.4661
Gene MT1893 Rv1845c, HC101A vs DMSO
  DosR DMSO/DosR HC101A Fold change: 2.084
Gene MT1922 Rv1873, HC101A vs DMSO
  DosR DMSO/DosR HC101A Fold change: 0.4023
Gene MT1969 Rv1918c PPE, HC101A vs DMSO
  DosR DMSO/DosR HC101A Fold change: 0.497
Gene MT2040 Rv1986, HC101A vs DMSO
  DosR DMSO/DosR HC101A Fold change: 0.1916
Gene MT2126 Rv2066 cobl, HC101A vs DMSO
  DosR DMSO/DosR HC101A Fold change: 2.068
Gene MT2166 Rv2107 PE, HC101A vs DMSO
  DosR DMSO/DosR HC101A Fold change: 0.2681
Gene MT2167 Rv2108 PPE, HC101A vs DMSO
  DosR DMSO/DosR HC101A Fold change: 0.3139
Gene MT2168, HC101A vs DMSO
  DosR DMSO/DosR HC101A Fold change: 0.3901
Gene MT2264 Rv2208 cobS, HC101A vs DMSO
  DosR DMSO/DosR HC101A Fold change: 2.402
Gene MT2278 Rv2220 glnA1, HC101A vs DMSO
  DosR DMSO/DosR HC101A Fold change: 0.4388
Gene MT2284 Rv2225 panB, HC101A vs DMSO
  DosR DMSO/DosR HC101A Fold change: 0.4983
Gene MT2304 Rv2244 acpM, HC101A vs DMSO
  DosR DMSO/DosR HC101A Fold change: 0.3649
Gene MT2305 Rv2245 kasA, HC101A vs DMSO
  DosR DMSO/DosR HC101A Fold change: 0.4366
Gene MT2306, HC101A vs DMSO
  DosR DMSO/DosR HC101A Fold change: 0.4941
Gene MT2391 Rv2329c narK1, HC101A vs DMSO
  DosR DMSO/DosR HC101A Fold change: 0.4803
Gene MT2417, HC101A vs DMSO
  DosR DMSO/DosR HC101A Fold change: 0.4621
Gene MT2503 Rv2428 ahpC, HC101A vs DMSO
  DosR DMSO/DosR HC101A Fold change: 0.4435
[1]
  DosR DMSO/DosR HC101A Fold change: 0.4503
  log2 Fold change: −1.151
Gene MT2506, HC101A vs DMSO
  DosR DMSO/DosR HC101A Fold change: 0.4797
Gene MT2526 Rv2450c, HC101A vs DMSO
  DosR DMSO/DosR HC101A Fold change: 0.4891
Gene MT2615 Rv2540c aroF, HC101A vs DMSO
  DosR DMSO/DosR HC101A Fold change: 2.642
Gene MT2631, HC101A vs DMSO
  DosR DMSO/DosR HC101A Fold change: 2.089
Gene MT2698 Rv2623, HC101A vs DMSO
  DosR DMSO/DosR HC101A Fold change: 0.4756
Gene MT2778 Rv2705c, HC101A vs DMSO
  DosR DMSO/DosR HC101A Fold change: 0.4964
Gene MT2849 Rv2779c, HC101A vs DMSO
  DosR DMSO/DosR HC101A Fold change: 0.3146
Gene MT2850 Rv2780 ald, HC101A vs DMSO
  DosR DMSO/DosR HC101A Fold change: 0.2752
Gene MT2863 Rv2794c, HC101A vs DMSO
  DosR DMSO/DosR HC101A Fold change: 2.029
Gene MT3065 Rv2987c leuD, HC101A vs DMSO
  DosR DMSO/DosR HC101A Fold change: 0.4683
Gene MT3110 Rv3026c, HC101A vs DMSO
  DosR DMSO/DosR HC101A Fold change: 3.057
[2]
  DosR DMSO/DosR HC101A Fold change: 0.4507
  log2 Fold change: −1.15
Gene MT3132, HC101A vs DMSO
  DosR DMSO/DosR HC101A Fold change: 0.2656
Gene MT3133 Rv3048c nrdG, HC101A vs DMSO
  DosR DMSO/DosR HC101A Fold change: 0.2486
Gene MT3134 Rv3049c, HC101A vs DMSO
  DosR DMSO/DosR HC101A Fold change: 0.2205
Gene MT3178 Rv3094c, HC101A vs DMSO
  DosR DMSO/DosR HC101A Fold change: 0.4007
Gene MT3293 Rv3199c, HC101A vs DMSO
  DosR DMSO/DosR HC101A Fold change: 2.055
Gene MT3327 Rv3230c, HC101A vs DMSO
  DosR DMSO/DosR HC101A Fold change: 2.211
Gene MT3441 Rv3338, HC101A vs DMSO
  DosR DMSO/DosR HC101A Fold change: 0.3206
Gene MT3481 Rv3371, HC101A vs DMSO
  DosR DMSO/DosR HC101A Fold change: 0.4661
Gene MT3492 Rv3384c, HC101A vs DMSO
  DosR DMSO/DosR HC101A Fold change: 2.073
Gene MT3498 Rv3391 acrA1, HC101A vs DMSO
  DosR DMSO/DosR HC101A Fold change: 0.4878
Gene MT3539 Rv3433c, HC101A vs DMSO
  DosR DMSO/DosR HC101A Fold change: 2.35
Gene MT3581 Rv3477 PE, HC101A vs DMSO
  DosR DMSO/DosR HC101A Fold change: 0.3397
Gene MT3591 Rv3487c lipF, HC101A vs DMSO
  DosR DMSO/DosR HC101A Fold change: 0.406
Gene MT3696 Rv3590c PE_PGRS, HC101A vs DMSO
  DosR DMSO/DosR HC101A Fold change: 2.529
Gene MT3947 Rv3839, HC101A vs DMSO
  DosR DMSO/DosR HC101A Fold change: 0.4526
Gene MT3963 Rv3848, HC101A vs DMSO
  DosR DMSO/DosR HC101A Fold change: 0.4943
Gene MT3969 Rv3854c, HC101A vs DMSO
  DosR DMSO/DosR HC101A Fold change: 0.2468
Gene MT3970 Rv3855, HC101A vs DMSO
  DosR DMSO/DosR HC101A Fold change: 0.3536
Gene MT3976 Rv3862c, HC101A vs DMSO
  DosR DMSO/DosR HC101A Fold change: 0.3824
Gene MT3978 Rv3864, HC101A vs DMSO
  DosR DMSO/DosR HC101A Fold change: 0.3995
Gene MT3988 Rv3874, HC101A vs DMSO
  DosR DMSO/DosR HC101A Fold change: 0.4777
Gene MT3989 Rv3875 esat6, HC101A vs DMSO
  DosR DMSO/DosR HC101A Fold change: 0.4854

From patent US11717508B2, “Compounds, compositions, and methods for inhibiting bacterial growth” (priority 2016, dated 2023)
